Consider 1 molecule from patent US20150309012A1 (BAXTER INTERNATIONAL, published 2015).

In assay [1] the target is oxMIF on the cell surface of NR8383 rat macrophages (rat, UniProt P30904 2-115, oxidised isoform (oxMIF); residues not stated). In words: cell-based or functional assay.
The target of assay [2] is oxMIF on the cell surface of U937 human monocytic cells (human, UniProt P14174 2-115, oxidised isoform (oxMIF); residues not stated). Description: cell-based or functional assay.

B1: anti-oxMIF antibody RAM9 (antibody, human IgG1, kappa, V domains shown)
VH: EVQLLESGGGLVQPGGSLRLSCAASGFTFSIYSMNWVRQAPGKGLEWVSSIGSSGGTTYYADSVKGRFTISRDNSKNTLYLQMNSLRAEDTAVYYCAGSQWLYGMDVWGQGTTVTVSS
VL: DIQMTQSPSSLSASVGDRVTITCRSSQRIMTYLNWYQQKPGKAPKLLIFVASHSQSGVPSRFRGSGSETDFTLTISGLQPEDSATYYCQQSFWTPLTFGGGTKVEIKR
As for B1, the “IC50 (inhibition of cell migration, chemokinesis assay, MI against log RAM9)” value in assay [1] came out at 12 nM. The “IC 50 of migration inhibition of U937 cells, antibody in the inserts (upper chamber), plate 1” value in assay [2] came out at 1.2 nM.
